{"source": "patent US20230338564A1", "about": "“NEODEGRADER CONJUGATES” (Orum Therapeutics, Inc., priority 2020, published 2023)", "test_in_all_cases": "In vitro antiproliferation assay, General Procedure 2 (CCK-8)", "format_in_all_cases": "cell-based", "conditions_in_all_cases": "anti-BCMA conjugate (Table 12)", "key": {"[1]": {"system": "KMS-12-BM multiple myeloma cell line", "from_the_text": "(§1) Cell Culture: Cell lines were obtained from the American Type Culture Collection (ATCC, Manassas, VA, USA) or Deutsche Sammlung von Mikroorganismen und Zellkulturen (DSMZ, Braunschweig, Germany) and maintained according to the culturing conditions specified by ATCC or DSMZ. Cells were thawed out and maintained in culture for at least two passages before proceeding with experimental conditions.\n(§2) Cytotoxicity assays: For adherent cell lines, the cells were dissociated with enzyme-free PBS-based cell dissociation buffer (Gibco, USA) and plated on tissue culture treated 96-well flat bottom polystyrene plates (Costar, Corning, USA) at appropriate cell densities depending on doubling time of the cells. 18 hours after plating, cells were treated with test articles at appropriate concentrations starting at 100 nM and diluted in 4-fold serial dilutions. For suspension cell lines, the cells were seeded on the same day of treatment and cells were treated as described above. Adherent cells were treated for 5 days and suspension cells were treated for 3 days. Cell proliferation was assessed using the Cell Counting Kit-8 (CCK-8, Dojindo Laboratories, Japan) and measurements were obtained using the Promega GloMax Discover plate reader (Promega, USA). Data were analyzed using GraphPad Prism software (GraphPad Software, San Diego, CA). All data points were obtained from technical triplicates and the experiments were validated using three biological replicates."}, "[2]": {"system": "LP-1 multiple myeloma cell line", "from_the_text": "as §1, §2"}, "[3]": {"system": "MM.1S multiple myeloma cell line", "from_the_text": "as §1, §2"}, "[4]": {"system": "NCI-H929 multiple myeloma cell line", "from_the_text": "as §1, §2"}, "[5]": {"system": "MM.1R multiple myeloma cell line", "from_the_text": "as §1, §2"}, "[6]": {"system": "MOLP-2 multiple myeloma cell line", "from_the_text": "as §1, §2"}, "[7]": {"system": "OPM-2 multiple myeloma cell line", "from_the_text": "as §1, §2"}}}
{"molecule": "Belantamab-Compound (Ia) (conjugate, chains of the INN, looked up, conjugated to Compound (Ia)) heavy: QVQLVQSGAEVKKPGSSVKVSCKASGGTFSNYWMHWVRQAPGQGLEWMGATYRGHSDTYYNQKFKGRVTITADKSTSTAYMELSSLRSEDTAVYYCARGAIYDGYDVLDNWGQGTLVTVSSASTKGPSVFPLAPSSKSTSGGTAALGCLVKDYFPEPVTVSWNSGALTSGVHTFPAVLQSSGLYSLSSVVTVPSSSLGTQTYICNVNHKPSNTKVDKKV[human IgG1 Fc not written out] light: DIQMTQSPSSLSASVGDRVTITCSASQDISNYLNWYQQKPGKAPKLLIYYTSNLHSGVPSRFSGSGSGTDFTLTISSLQPEDFATYYCQQYRKLPWTFGQGTKLEIKRTVAAPSVFIFPPSDEQLKSGTASVVCLLNNFYPREAKVQWKVDNALQSGNSQESVTEQDSKDSTYSLSSTLTLSKADYEKHKVYACEVTHQGLSSPVTKSFNRGEC", "values": [{"measurement": "IC50", "setting": "[1]", "value": 0.087, "unit": "nM"}, {"measurement": "IC50", "setting": "[2]", "value": 3.17, "unit": "nM"}, {"measurement": "IC50", "setting": "[3]", "value": 0.209, "unit": "nM"}, {"measurement": "IC50", "setting": "[4]", "value": 11.9, "unit": "nM"}, {"measurement": "IC50", "setting": "[5]", "value": 0.684, "unit": "nM"}, {"measurement": "IC50", "setting": "[6]", "value": 0.197, "unit": "nM"}, {"measurement": "IC50", "setting": "[7]", "value": 0.119, "unit": "nM"}]}
